Measured affinities in a library of Ab-14 heavy chain variants

The measurements come from Engelhart et al. 2022 (doi:10.1038/s41597-022-01779-4) through the FLAb antibody collection.

Target peptide (SARS-CoV-2 spike, HR2 region): PDVDLGDISGINAS

Each scFv is VH, three GGGGS repeats, VL, as in the parent Ab-14, and differs from it in the CDRs of the heavy chain only.
VH: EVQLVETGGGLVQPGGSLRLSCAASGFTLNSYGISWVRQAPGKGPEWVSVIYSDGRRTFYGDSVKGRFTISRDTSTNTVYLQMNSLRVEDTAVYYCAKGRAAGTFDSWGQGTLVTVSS
VL: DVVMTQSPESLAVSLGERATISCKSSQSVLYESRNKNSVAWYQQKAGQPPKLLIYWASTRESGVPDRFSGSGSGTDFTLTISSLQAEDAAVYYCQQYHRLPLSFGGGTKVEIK

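AAYL49 was designed without a model: most single CDR substitutions and a random sample of double and triple ones. The scFvs were displayed on barcoded MATa yeast, the peptide on MATalpha yeast. Mating (16 h, 30 °C) was followed by selection of diploids and sequencing of their barcodes. A regression on co-assayed BCL2-family reference pairs converts the normalised counts of each replicate to an apparent Kd. Each pool was mated in three replicate cultures.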

Positions count from residue 1 of the parent VH; L29P puts P in place of L. All variants listed here change S31 of the VH, counted from its first residue. The Kd shown is the geometric mean over detected replicates; a lower Kd is a better binder. Where no diploid with the target was found in any replicate, the entry reads "nd": below detection, most likely a poor binder, though not proof of it. For reference, the parent read 4.4 nM as the reference entry and 13 µM (one replicate of three) as a member of this library. Three control strains display no target. For library AAYL49, 15% of the pairings with them gave a signal, with a median of 11 µM and one signal in twenty below 680 nM, so weak values seen in few replicates may be background.

changes,Kd (apparent),seen in
L29P/S31R,2.6 µM,2/3
F27T/S31F,170 nM,3/3
S31L/D62N/G103Y,nd,0/3
S31L/T104L/D106H,nd,0/3
S31Y/S53K/V64F,nd,0/3
S31I/S53Y/T58P,6.2 µM,1/3
F27M/S31W/G33L,nd,0/3
S31I,350 nM,3/3
N30D/S31V/F59D,nd,0/3
S31N/Y60K/D106V,150 nM,1/3
S31C/G33L/F59Y,nd,0/3
T28W/S31Q/D62T,160 nM,2/3
S31A/I34S/R100G,62 µM,2/3
S31Q/R56K/V64S,53 nM,3/3
S31Y/G99C/F105T,3.3 µM,1/3
F27H/S31P/A101E,1.9 µM,3/3
S31L/S35D/R100S,nd,0/3
F27S/N30A/S31P,21 µM,1/3
S31C/D106Y,nd,0/3
S31Y/S35Q/A101S,2.0 µM,1/3
L29N/S31G/G103Y,7.1 µM,1/3
S31A/R56K/R57E,120 µM,1/3
L29H/S31T/Y32K,450 nM,3/3
S31N/G61A/R100C,nd,0/3
S31H/S53L/T104D,29 µM,3/3
S31Y/S35Y/D106N,17 µM,2/3
F27A/S31K/T58R,1.4 µM,3/3
S31Q/V64T/A101D,77 nM,3/3
F27Q/S31N/S63T,140 nM,3/3
S31G/V50R/S63V,nd,0/3
S31E/V50D,1.7 µM,1/3
S31E/T104Q,1.7 nM,3/3
S31H/Y60H/A102F,3.7 µM,2/3
S31Q/Y52S/Y60L,3.1 µM,2/3
S31H/I34T/V64C,24 µM,2/3
S31H/G55I/A102Q,24 µM,1/3
S31Y/T58H/G103C,2.2 µM,3/3
S31P/I34S/D54P,nd,0/3
S31G/S35D/G55W,nd,0/3
S31H/I34T/S35D,480 nM,1/3
L29D/S31I/G55H,nd,0/3
S31P/G103Y/F105T,18 µM,2/3
S31E/Y52S/D62H,1.2 µM,3/3
N30C/S31N/G103K,43 µM,2/3
S31R/A102V/G103H,nd,0/3
S31I/S63G,610 nM,3/3
S31Y/Y32K/S63K,20 µM,1/3
S31W/G33K/K65Q,nd,0/3

Excerpt, the final 7 entries:

{"changes": "S31P/G103Y/F105T", "Kd (apparent)": "18 µM", "seen in": "2/3"}
{"changes": "S31E/Y52S/D62H", "Kd (apparent)": "1.2 µM", "seen in": "3/3"}
{"changes": "N30C/S31N/G103K", "Kd (apparent)": "43 µM", "seen in": "2/3"}
{"changes": "S31R/A102V/G103H", "Kd (apparent)": "nd", "seen in": "0/3"}
{"changes": "S31I/S63G", "Kd (apparent)": "610 nM", "seen in": "3/3"}
{"changes": "S31Y/Y32K/S63K", "Kd (apparent)": "20 µM", "seen in": "1/3"}
{"changes": "S31W/G33K/K65Q", "Kd (apparent)": "nd", "seen in": "0/3"}